According to patent US11795135B2, “Prostacyclin compounds, compositions and methods of use thereof” (Insmed Incorporated, priority 2013, dated 2023):

Legend:
[1] = Treprostinil alkyl ester conversion to treprostinil in monkey lung tissue homogenate; format: in vitro ADME; settings: 37° C., 200 nM, 4 hours, 10 mg/mL of protein
Description: (§1) Treprostinil alkyl ester conversion to treprostinil was also measured in the presence of rat, dog and monkey lung tissue homogenate at 37° C. Here, data were calculated based on fit of exponential increase to the maximum (experiments performed in duplicate). The results of this study are provided below in Table 2A and FIG. 37. […] Both FIG. 37 experiments (left and right graphs) were performed in duplicate and the lines represent nonlinear exponential regression assuming 1 phase decay.

[2] = Treprostinil alkyl ester conversion to treprostinil in rat lung tissue homogenate; format: in vitro ADME; settings: 37° C., 200 nM, 4 hours, 10 mg/mL of protein
Description: as §1

[3] = Treprostinil alkyl ester conversion to treprostinil in dog lung tissue homogenate; format: in vitro ADME; settings: 37° C., 200 nM, 4 hours, 10 mg/mL of protein
Description: as §1

[4] = tested on: Rat alveolar NR8383 cells; assay: NR8383 cell proliferation assay (Presto Blue); format: cell-based
Description: Rat alveolar NR8383 cells were harvested when the monolayer was 50-90% confluent (use passage 5-11). Because the NR8383 cells include both adherent and non-adherent cells, media was transferred to a 50 mL Falcon tube. To obtain the cells remaining in the flask, 2 mL of plain media was added, and the remaining cells were scraped out of the 75 cm^2 flask with a cell scraper and added to the 50 mL tube. […] SH30071.03)+1×Pen-Strep (Life Technologies, cat #: 15410-122)). Cell number was determined using a hemacytometer. […] Measurements and calculations were made as described above for the CHO-K1 cells.

[5] = Particle size characterization of treprostinil compositions (QELS); format: physicochemical; settings: compositions comprising the alkyl ester (Table 3), FIG. 2
CHO-K1 cells = tested on: CHO-K1 cells
Description: CHO-K1 cells were harvested when the cell monolayer was 50-90% confluent (use passage 4-11). Media was aspirated out of the flask, and cells were rinsed with 2 mL of F12 media. Next, 1 mL of pre-warmed (37° C.) 0.25% trypsin-EDTA (Life Technologies, Cat #: 25300054) was added, and cells were dislodged from the flask by tapping it on the side. Complete growth media (F12 (Life Technologies, Cat #: 31765092)+10% FBS (Hyclone, Cat #: SH30071.03)+1× Pen-Strep (Life Technologies, cat #15140-122) was then added at a volume of 10 mL. Cells were centrifuged at 250×g for 5 minutes at room temperature, and the media was aspirated. The cell pellet was resuspended in 10 mL complete growth media. Cell number was determined using a hemacytometer. Cells were then seeded at 2000 cells per well of a 96-well plate in 100 μL of complete growth media. The plate was incubated overnight at 37° C. and 5% CO2 in a water-jacketed incubator.
The next day, 80 μL of fresh complete media was added to each well, and CHO-K1 cells were challenged with treprostinil compound and composition treatments. […] Following a 48 hour incubation at 37° C. and 5% CO2 in a water-jacketed incubator, the inhibitory effect on cell proliferation was determined. Plates were analyzed using 20 μL of Presto Blue reagent (Life Technologies, cat #: A13262) per well. […]

With “treprostinil decyl ester [Compound C10-TR]” the “Rate of treprostinil alkyl ester conversion” value (“Rate” for short) [1] was 4.6 nmOL/h * g of protein, the “Rate” value [2] was 7.3 nmOL/h * g of protein and the “Rate” value [3] was 10.5 nmOL/h * g of protein.
With “treprostinil pentyl ester [Compound C5-TR]” the “Effect on cell proliferation, NR8383 Cells (0.195 μM-25 μM)” value [4] was “No detectable cell inhibition”, the average particle diameter [5] was 316 nm and the “Effect on cell proliferation, CHO-K1 Cells (0.195 μM-25 μM)” value (CHO-K1 cells) was “No detectable cell inhibition”.
